Results from US20230114865A1, “PHENYL PYRROLE AMINOGUANIDINE SALTS AND FORMULATIONS” (SYNACT PHARMA APS, priority 2021, published 2023).

Key:
[1] = Thermodynamic solubility of AP1189 salts in 0.2 M or 0.5 M buffer solutions, 24 hr, HPLC; conditions: as freebase
[2] = 37° C, buffer pH 6.8, 22 h
[3] = 0.2 M buffer pH 1.2, ambient temperature

Row | Solubility at 24 h (mM freebase) [1, 3] | Solubility at 24 h (mM freebase) ([1]; 0.2 M buffer pH 4.5, ambient temperature) [mM] | equilibrium solubility pH 6.8 [2] | Substance
1 | 134.10 mM | 2.23 |  | (E)-N-[1-(2-nitrophenyl)-1-H-pyrrole-2-yl-allylideneamino]-guanidinium acetate [AP1189 acetate]
2 | >36.26** mM |  | 2.5 mM ± 0.1 mM (22 h) | (E)-N-[1-(2-nitrophenyl)-1-H-pyrrole-2-yl-allylideneamino]-guanidinium succinate [AP1189 succinate]

Marks after values point to notes of the source that are not given here.
